These are literature values, as cited in US5762960A (Trustees of Tufts College, priority 1996, dated 1998).

The test system of the data set is serotonin uptake. More on the design: Amine Uptakes Blocking Activity Serotonin: key to the marks not given beside the values. The conditions noted are these: cited from earlier work; for Amine Uptakes Blocking Activity Serotonin: Table 3; for Activity at the serotonin receptor site in-vivo: in words, text commenting on Table 6.

For the compound `CN(C)CCC=C1c2ccccc2CCc2ccccc21` [Amitriptyline], the “Amine Uptakes Blocking Activity Serotonin” value is “++++” and the “Activity at the serotonin receptor site in-vivo” value is listed as “highest or very highest”. Turning to `CN(C)CCCN1c2ccccc2CCc2ccc(Cl)cc21` [Clomipramine, 3-chloro-10,11-dihydro-N,N-dimethyl-5H-benzo-[b,f]azepine-5-propamine], the “Amine Uptakes Blocking Activity Serotonin” value was “+++++” and the “Activity at the serotonin receptor site in-vivo” value is listed as “highest or very highest”. On to `CNCCC(Oc1ccc(C(F)(F)F)cc1)c1ccccc1` (stereo not drawn) [Fluoxetine, fluoxetine], for which the “Activity at the serotonin receptor site in-vivo” value was “greatest powers”. As for `Fc1ccc([C@@H]2CCNC[C@H]2COc2ccc3c(c2)OCO3)cc1` [Paroxetine, paroxetine], the “Activity at the serotonin receptor site in-vivo” value was “greatest powers”.
